Source: PubChem BioAssay AID493011 (Sanford-Burnham Center for Chemical Genomics, 2011)
The entries are a selection whose mix differs from that of the whole data set. Some salts and complexes are drawn in separate pieces, as the source files them; their charges need not balance. Active and inactive are the calls of the source.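 Rule for the calls: active = at least 40% inhibition at 20 µM here, with at most 30% in a related deaminase screen; inactive = the rest.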

Protein sequences, listed by entry. Tags and fused reporters are not part of them.
UniProt P31941, whole entry: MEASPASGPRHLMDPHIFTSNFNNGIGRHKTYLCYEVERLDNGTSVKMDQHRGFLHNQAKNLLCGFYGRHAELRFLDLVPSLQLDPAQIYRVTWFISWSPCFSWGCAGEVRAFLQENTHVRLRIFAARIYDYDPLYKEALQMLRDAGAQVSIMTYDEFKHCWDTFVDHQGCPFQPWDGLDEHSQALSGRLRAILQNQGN

These molecules were tested against DNA dC->dU-editing enzyme APOBEC-3A (Homo sapiens) (UniProt P31941) (assay: blockers of A3A cytidine deamination on DNA – biochemical, FAM/TAMRA oligo cleavage fluorescence, selectivity assay for APOBEC3G inhibitor project, primary screen (AID 493011;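 note: plate controls were A3A with DMSO for no effect and wells lacking A3A enzyme for full effect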)). Conditions: recombinant A3A, FAM/TAMRA ssDNA deamination fluorescence; at 20 µM; active compounds read high.
With `CCN(CC)CCCOC(=O)C(O)(c1ccccc1)c1ccccc1` the inhibition was inactive: -1.64%. For `Cc1cccc(C)c1OP(C)(N)=O` (configuration not stated), the inhibition was inactive: 1.47%. With `CC(C)(C)c1ccc(OP(C)(=O)Nc2ccc(SC(F)(F)F)cc2)cc1` (configuration not stated) the inhibition was inactive: -4.86%. For `O=[N+]([O-])c1cc([N+](=O)[O-])c(Nc2cccnc2)c([N+](=O)[O-])c1`, the inhibition was inactive: 1.98%. For `Cc1cc(C)cc(OP(C)(N)=O)c1` (configuration not stated), the inhibition was inactive: -5.56%. `COc1ccc(OP(C)(=O)Nc2cccc(F)c2)cc1` (configuration not stated) was tested, and the inhibition was inactive: -2.81%. `COc1ccccc1OP(C)(=O)Nc1cc(Cl)ccc1C` (configuration not stated) was tested, and the inhibition was inactive: -1.32%. For `Cc1ccc(NP(C)(=O)Oc2ccccc2)c(C)c1` (configuration not stated), the inhibition was inactive: 0.343%. With `COc1ccccc1OP(C)(=O)Nc1ccc(C)cc1` (configuration not stated) the inhibition was inactive: 0.757%. For `CCOC(=O)c1ccc(NP(C)(=O)Oc2ccccc2)cc1` (configuration not stated), the inhibition was inactive: -2.13%. For `CP(=O)(Nc1ccccc1Br)Oc1ccccc1` (configuration not stated), the inhibition was inactive: -0.507%. For `COc1ccccc1OP(C)(=O)Nc1ccccc1` (configuration not stated), the inhibition was inactive: 1.54%. For `CP(=S)(Nn1cnnc1)Oc1ccccc1` (configuration not stated), the inhibition was inactive: -2.57%. In the case of `Cc1cc(C)cc(OP(C)(=O)Nc2ccc(SC(F)(F)F)cc2)c1` (configuration not stated), the inhibition is reported as inactive: -2.44%. With `CP(=O)(NC(=O)Nc1ccccc1)Oc1ccccc1` (configuration not stated) the inhibition was inactive: -5.2%. `CCc1ccc(OP(C)(=O)N2CCN(c3ccc([N+](=O)[O-])cc3)CC2)cc1` (configuration not stated) was tested, and the inhibition was inactive: -1.61%. In the case of `CP(=O)(Oc1ccccc1)OC(c1ccccc1)C(F)(F)F` (configuration not stated), the inhibition is reported as inactive: 3.21%. With `CP(=O)(Nc1ccc(SC(F)(F)F)cc1)Oc1ccc(Cl)cc1` (configuration not stated) the inhibition was inactive: -0.023%. `Cc1cccc(C)c1OP(C)(=O)Nc1ccc(SC(F)(F)F)cc1` (configuration not stated) was tested, and the inhibition was inactive: -3.34%. With `CP(=O)(Nc1ccccn1)Oc1ccc(Cl)cc1` (configuration not stated) the inhibition was inactive: 1.83%. With `O=[N+]([O-])c1cc([N+](=O)[O-])c(O)c([N+](=O)[O-])c1.c1ccc(Oc2ccncc2)cc1` the inhibition was inactive: -0.158%. For `CCOC(=O)c1ccc(NP(C)(=O)Oc2ccc(OC)cc2)cc1` (configuration not stated), the inhibition was inactive: -1.05%. With `CCOP(C)(=S)SCC(=O)NC(C)C(=O)O` (configuration not stated) the inhibition was inactive: -2.43%. For `O=[N+]([O-])c1cc([N+](=O)[O-])c(-n2nnc3ccccc32)c([N+](=O)[O-])c1`, the inhibition was inactive: 2.08%. For `Cc1nc2ccc3ccccc3c2s1.O=[N+]([O-])c1cc([N+](=O)[O-])c(O)c([N+](=O)[O-])c1`, the inhibition was inactive: -4.93%. In the case of `O=[N+]([O-])c1cc([N+](=O)[O-])c(-c2cnn(-c3ccccc3)c2)c([N+](=O)[O-])c1`, the inhibition is reported as inactive: -2.4%. With `CCOC(=O)C(CC)C1=NC(C)(C)Cc2ccccc21.O=[N+]([O-])c1cc([N+](=O)[O-])c(O)c([N+](=O)[O-])c1` (configuration not stated) the inhibition was inactive: -1.66%. With `CC1=C2N=C(C=C3N=C(C(C)=C4[N-][C@@](C)([C@@H]5N=C1[C@](C)(CCC(=O)NC[C@@H](C)OP(=O)([O-])O[C@H]1[C@@H](O)[C@@H](n6cnc7cc(C)c(C)cc76)O[C@@H]1CO)[C@H]5CC(N)=O)[C@@](C)(CC(N)=O)[C@@H]4CCC(N)=O)[C@@](C)(CC(N)=O)[C@@H]3CCC(N)=O)C(C)(C)[C@@H]2CCC(N)=O.[C-]#N.[Co+3]` the inhibition was inactive: 8.18%. `O=[N+]([O-])c1cc([N+](=O)[O-])c(Nc2nnnn2CCO)c([N+](=O)[O-])c1` was tested, and the inhibition was inactive: -1.27%. In the case of `CCCOc1ccc(NP(C)(=O)Oc2ccc(Cl)cc2)cc1` (configuration not stated), the inhibition is reported as inactive: -3.24%. For `CP(=O)(Nc1ccc(SC(F)(F)F)cc1)Oc1ccccc1` (configuration not stated), the inhibition was inactive: -1.55%. In the case of `CN1CCCCC1COC(=O)C1(O)c2ccccc2CCc2ccccc21` (configuration not stated), the inhibition is reported as inactive: -1.21%. For `COc1ccccc1OP(C)(=O)Nc1c(C)cccc1C` (configuration not stated), the inhibition was inactive: -0.316%. For `O=C(O)c1cccc(Nc2c([N+](=O)[O-])cc([N+](=O)[O-])cc2[N+](=O)[O-])c1`, the inhibition was inactive: 1.43%. In the case of `CC1=NCCc2c1[nH]c1ccccc21.O=[N+]([O-])c1cc([N+](=O)[O-])c(O)c([N+](=O)[O-])c1`, the inhibition is reported as inactive: 1.98%. For `CCOC(=O)c1ccc(NP(C)(=O)Oc2cc(C)cc(C)c2)cc1` (configuration not stated), the inhibition was inactive: 1.56%. With `Cc1cc(C)cc(OP(C)(=O)Nc2ccc(C)cc2C)c1` (configuration not stated) the inhibition was inactive: 3.57%. `COc1ccccc1OP(C)(=O)Nc1cccc(Br)c1` (configuration not stated) was tested, and the inhibition was inactive: 1.61%. With `Cc1ccc(C)c(NP(C)(=O)Oc2ccccc2)c1` (configuration not stated) the inhibition was inactive: 5.78%. With `Cc1cc(C)cc(OP(C)(=O)Nc2ccccn2)c1` (configuration not stated) the inhibition was inactive: -1.88%. In the case of `CP(=O)(Nc1cccc(Br)c1)Oc1ccccc1` (configuration not stated), the inhibition is reported as inactive: -1.37%. In the case of `CP(=O)(Nc1ccccc1F)Oc1ccccc1` (configuration not stated), the inhibition is reported as inactive: -1.55%. `CC(C)c1ccc(OP(C)(=O)Nc2ccc(SC(F)(F)F)cc2)cc1` (configuration not stated) was tested, and the inhibition was inactive: 0.125%. For `COc1ccc2c(c1O)-c1c(O)c(OC)cc3c1[C@H](C2)[N+](C)(C)CC3.O=[N+]([O-])c1cc([N+](=O)[O-])c([O-])c([N+](=O)[O-])c1[O-]`, the inhibition was inactive: 4.45%. With `O=C(OC1CN2CCC1CC2)c1ccc([N+](=O)[O-])cc1` (configuration not stated) the inhibition was inactive: -1.56%. With `O=C(OCCN1CCN(CCOCc2ccccc2)CC1)C(O)(c1ccccc1)c1ccccc1` the inhibition was inactive: -2.21%. In the case of `CCOC(=O)c1ccc(NP(C)(=O)Oc2ccc(F)cc2)cc1` (configuration not stated), the inhibition is reported as inactive: 1.93%. For `COc1ccc(OP(C)(=O)Nc2ccc(SC(F)(F)F)cc2)cc1` (configuration not stated), the inhibition was inactive: -3.77%. In the case of `CP(=O)(Nc1ccccc1)Oc1ccc(F)cc1` (configuration not stated), the inhibition is reported as inactive: -2.97%. In the case of `CCCCCOc1ccc(NP(C)(=O)Oc2ccc(Cl)cc2Cl)cc1` (configuration not stated), the inhibition is reported as inactive: -2.24%. `O=[N+]([O-])c1cc([N+](=O)[O-])c(OC2CCCCC2O)c([N+](=O)[O-])c1` (configuration not stated) was tested, and the inhibition was inactive: -6.02%. With `CCN(CC)CCCOC(=O)C(O)(c1ccccc1)C1CCCCC1` (configuration not stated) the inhibition was inactive: -1.47%. `CN(C)CCOC(=O)C(O)(c1ccccc1)C1CCCCC1` (configuration not stated) was tested, and the inhibition was inactive: -0.773%. With `COc1ccc(NP(C)(=O)Oc2ccccc2OC)cc1` (configuration not stated) the inhibition was inactive: -3.74%. `COc1ccc(OP(C)(=O)Nc2cccc(Br)c2)cc1` (configuration not stated) was tested, and the inhibition was inactive: 1.82%. In the case of `O=[N+]([O-])c1cc([N+](=O)[O-])c(NCC2CCS(=O)(=O)C2)c([N+](=O)[O-])c1` (configuration not stated), the inhibition is reported as inactive: -5.76%. With `CCOP(C)(=S)SCC(=O)NC(C)(CC)C(=O)O` (configuration not stated) the inhibition was inactive: -2.91%. With `CP(=O)(Nc1ccc(SC(F)(F)F)cc1)Oc1ccc(F)cc1` (configuration not stated) the inhibition was inactive: -0.692%. `Cc1ccccc1NP(C)(=O)Nc1ccccc1C` was tested, and the inhibition was inactive: -2.47%. With `CP(=O)(Nc1ccc2c(c1)OCCO2)Oc1ccccc1` (configuration not stated) the inhibition was inactive: -3.59%. In the case of `O=C(OCCCN1CCCC1)C(O)(c1ccccc1)C1CCCCC1` (configuration not stated), the inhibition is reported as inactive: 0.621%. `COc1ccccc1OP(C)(=O)Nc1c(C)n(C)n(-c2ccccc2)c1=O` (configuration not stated) was tested, and the inhibition was inactive: -0.594%. `CCc1ccc(OP(C)(=O)Nc2cccnc2)cc1` (configuration not stated) was tested, and the inhibition was inactive: -0.994%. `CP(=O)(Oc1ccccc1)N1CCOC1=O` (configuration not stated) was tested, and the inhibition was inactive: 0.206%. For `COc1ccc(OP(C)(=O)Nc2ccc(Br)cc2)cc1` (configuration not stated), the inhibition was inactive: 0.144%. For `CCN(CC)CC(O)COC(=O)C(O)(c1ccccc1)C1CCCCC1` (configuration not stated), the inhibition was inactive: 2.75%. `CN(C)C(=O)c1c([N+](=O)[O-])cc([N+](=O)[O-])cc1[N+](=O)[O-]` was tested, and the inhibition was inactive: -1.1%. With `COc1ccccc1OP(C)(=O)Nc1ccccc1Br` (configuration not stated) the inhibition was inactive: 2.1%. For `CC(C)(C)c1ccc(OP(C)(=O)O)cc1`, the inhibition was inactive: 0.374%. For `CP(=O)(Nc1ccc(Cl)cc1)Oc1ccc(F)cc1` (configuration not stated), the inhibition was inactive: 1.4%. For `CCOC(=O)c1ccc(NP(C)(=O)Oc2ccc(Cl)cc2)cc1` (configuration not stated), the inhibition was inactive: -1.58%. `CP(=O)(OC12CC3CC(CC(C3)C1)C2)OC12CC3CC(CC(C3)C1)C2` was tested, and the inhibition was inactive: 6.75%. For `Nc1ccc2c(ccc3cccnc32)n1.O=[N+]([O-])c1cc([N+](=O)[O-])c(O)c([N+](=O)[O-])c1`, the inhibition was inactive: 4.24%. In the case of `COc1ccccc1OP(C)(=O)Nc1ccc(C)c(C)c1` (configuration not stated), the inhibition is reported as inactive: -0.994%. For `COc1ccc(OP(C)(=O)Nc2ccccc2Br)cc1` (configuration not stated), the inhibition was inactive: -0.461%. `Cc1cc(C)cc(OP(C)(=O)Nc2cccc(C(F)(F)F)c2)c1` (configuration not stated) was tested, and the inhibition was inactive: -3.89%. In the case of `CP(=O)(Nc1ccc(Cl)cc1Cl)Oc1ccccc1` (configuration not stated), the inhibition is reported as inactive: -2.82%. `CP(=O)(OCCOc1ccccc1)OCCOc1ccccc1` was tested, and the inhibition was inactive: 3.01%. For `Cc1nc2ccc3ccccc3c2o1.O=[N+]([O-])c1cc([N+](=O)[O-])c(O)c([N+](=O)[O-])c1`, the inhibition was inactive: 0.534%. With `COc1ccc(OP(C)(=O)Nc2ccccn2)cc1` (configuration not stated) the inhibition was inactive: -6.61%. `CN(C)CCOC(=O)C(O)(c1ccccc1)C1CCCC1` (configuration not stated) was tested, and the inhibition was inactive: 1.98%. `COc1ccccc1OP(C)(=O)Nc1ccc(Br)cc1` (configuration not stated) was tested, and the inhibition was inactive: 2.42%. For `COc1ccccc1OP(C)(=O)Nc1ccc(C)cc1C` (configuration not stated), the inhibition was inactive: -0.689%. In the case of `CP(=O)(Nc1ccccn1)Oc1ccccc1` (configuration not stated), the inhibition is reported as inactive: -1.31%. In the case of `CCc1ccc(OP(C)(=O)O)cc1`, the inhibition is reported as inactive: 0.148%. In the case of `Cc1c(NP(C)(=O)Oc2ccc(C(C)C)cc2)c(=O)n(-c2ccccc2)n1C` (configuration not stated), the inhibition is reported as inactive: 3.48%. In the case of `O=[N+]([O-])c1cc([N+](=O)[O-])c(Nc2ccccn2)c([N+](=O)[O-])c1`, the inhibition is reported as inactive: 0.126%.
